What was measured:
rV2 = target: T1, rV2 (Rattus norvegicus, UniProt Q00788); experiment: Luciferase reporter gene assay, rV2; format: cell-based
T1 construct: host or cells: HEK-293 cells, transient

By UniProt entry, the sequences of proteins in these tests, tags left out.
UniProt Q00788, whole entry: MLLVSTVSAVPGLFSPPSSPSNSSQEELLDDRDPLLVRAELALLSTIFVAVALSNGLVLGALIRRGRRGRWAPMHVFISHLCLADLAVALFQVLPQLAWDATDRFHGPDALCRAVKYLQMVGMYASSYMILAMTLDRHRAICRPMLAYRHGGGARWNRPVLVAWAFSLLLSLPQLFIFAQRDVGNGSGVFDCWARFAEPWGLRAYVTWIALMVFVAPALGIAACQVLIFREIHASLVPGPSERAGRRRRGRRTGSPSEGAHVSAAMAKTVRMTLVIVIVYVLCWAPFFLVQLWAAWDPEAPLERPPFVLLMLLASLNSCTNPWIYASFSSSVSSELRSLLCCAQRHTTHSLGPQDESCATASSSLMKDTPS

adult male Wistar rats = experiment: Skin blood flow and blood lactate in anesthetized rats (IV infusion); format: in vivo, rat
Experimental: This study was performed over multiple experiments using a total of 48 adult male Wistar rats. Compounds were dissolved in 2.5% dextrose and 0.45% sodium chloride on the day of the study, at concentrations allowing administration of the desired dose at an infusion rate of 20 μL/kg/min (0.15-150 μmoL/μL). Compounds were infused via an IV catheter at six sequentially increasing doses. A group of vehicle-administered animals received vehicle throughout the study and data were reported from intervals timed analogously with the dose-response in compound 1-administered animals.
On the day of experimentation animals were anesthetized and instrumented. […] Ventilation was initiated, and baseline readings for the primary parameter of skin blood flow (SBF) were recorded. Readings for the secondary parameters were also recorded: (1) blood lactate concentration, (2) mean arterial pressure (MAP), and (3) blood pH. Data collection was performed continuously for SBF and MAP using NOTOCORD-hem™ (Instem), and blood samples were taken at each compound dose and immediately analyzed using an i-STAT® meter.
After the final dose administration, animals were euthanized and a final SBF measurement was recorded to detect any signal from the flow probe after the animal's heart stopped beating to control for a signal not attributed to blood flow. […]

## NC(=O)CC[C@@H]1NC(=O)[C@H](Cc2ccccc2)NC(=O)[C@H](Cc2ccc(O)cc2)NC(=O)[C@@H](N)CSSC[C@@H](C(=O)N2CCC[C@H]2C(=O)N[C@@H](CCCN=C(N)N)C(=O)NCC(N)=O)NC(=O)[C@H](CC(N)=O)NC1=O [AVP, arginine vasopressin]
rV2
  EC50: 40 pM
Adult male Wistar rats
  Emax, skin blood flow decrease: 91.8%

— patent US20260137790A1, “MIXED VASOPRESSIN RECEPTOR AGONIST-ANTAGONIST FOR MODULATING MEAN ARTERIAL PRESSURE” (FERRING B.V., priority 2022, published 2026)
